Earlier results on one substance are cited in patent US7267813B2 (Orion Corporation, priority 2000, dated 2007).

Regarding Formoterol fumarate, under “solvent ethanol”, the solubility in ethanol result is “sparingly soluble”. The “solubility in glacial acetic acid” value (solvent glacial acetic acid) is given as “freely soluble”. Moreover, the solubility in methanol result (solvent methanol) is listed as “soluble”.
